Results reported in patent publication US9579408B2, “PET/SPECT agents for applications in biomedical imaging” (Washington University, priority 2011, dated 2017).
Where two headings read alike, the source gives them in different places.

Assays:
MDR1 Pgp (ABCB1) = details: 2 h post injection, dKO vs WT mice
MCF-7 cells (-Pgp) = details: control buffer
KB-3-1 cells (-Pgp) = details: control buffer
[1] = Quantitative biodistribution in wild-type (WT) mice; details: n = 3
KB-8-5-11 (++Pgp) cells = details: KB-8-5-11 (++Pgp) cells, control buffer
[2] = rats; for Heart to Tissue Ratio, Heart/Blood / Heart to Tissue Ratio, Heart/Liver: n = 3
MDR KB-8-5 (+Pgp) cells = details: MDR KB-8-5 (+Pgp) cells, control buffer
MCF-7/MDR1 (+Pgp) cells = details: MCF-7/MDR1 (+Pgp) cells, control buffer
[3] = 120 min P.I., listed as drawing 4

In the case of CC(C)Oc1cccc2c1[O][67Ga+][O]c1c(cccc1OC(C)C)C=NCC(C)(C)CNCCNCC(C)(C)CN=C2.[I-] [Agent 1A, [ENBDMP-3-isopropoxy-PI-^67Ga]^+], the “greater brain penetration and retention in mdr1a/1b(-/-) mice compared with WT counterparts” value (MDR1 Pgp (ABCB1)) is reported as 16 fold, the cellular accumulation (MCF-7 cells (-Pgp)) is reported as “high accumulation” and the cellular accumulation (KB-3-1 cells (-Pgp)) is reported as “high accumulation”. The “Heart to Tissue Ratio, Heart/Blood” value ([1]; 5 min P.I.) was 7.772 % ID/g, the “Heart to Tissue Ratio, Heart/Liver” value ([1]; 5 min P.I.) was 0.206 % ID/g and the “Heart to Tissue Ratio, Heart/Blood” value ([1]; 60 min P.I.) was 126.918 % ID/g. The “Heart to Tissue Ratio, Heart/Liver” value ([1]; 60 min P.I.) was 1.617 % ID/g, the “Heart to Tissue Ratio, Heart/Blood” value ([1]; 120 min P.I.) was 146.618 % ID/g and the “Heart to Tissue Ratio, Heart/Liver” value ([1]; 120 min P.I.) was 3.526 % ID/g. For the same compound, the cellular accumulation (KB-8-5-11 (++Pgp) cells) was “low accumulation”, the “Heart to Tissue Ratio, Heart/Blood” value ([2]; 5 min P.I.) was 8.386 % ID/g and the “Heart to Tissue Ratio, Heart/Liver” value ([2]; 5 min P.I.) was 0.554 % ID/g. The “Heart to Tissue Ratio, Heart/Blood” value ([2]; 60 min P.I.) was 49.677 % ID/g, the “Heart to Tissue Ratio, Heart/Liver” value ([2]; 60 min P.I.) was 4.246 % ID/g and the “heart/blood ratio relative to ratios reported for gallium-bisaminothiolate complexes (WO2008/128058)” value ([2]; 120 min P.I.) was 10.4 times. For the same compound, the “heart/liver ratio relative to ratios reported for gallium-bisaminothiolate complexes (WO2008/128058)” value ([2]; 120 min P.I.) was 10.8 times, the “Heart to Tissue Ratio, Heart/Blood” value ([2]; 120 min P.I., listed as 1a) was 138.825 % ID/g and the “Heart to Tissue Ratio, Heart/Liver” value ([2]; 120 min P.I., listed as 1a) was 7.782 % ID/g. For the same compound, the “Heart to Tissue Ratio, Heart/Blood” value [2, 3] was 138 % ID/g, the “Heart to Tissue Ratio, Heart/Liver” value [2, 3] was 8 % ID/g and the cellular accumulation (MDR KB-8-5 (+Pgp) cells) was “low accumulation”. The cellular accumulation (MCF-7/MDR1 (+Pgp) cells) was “low accumulation”.
